For orientation: Ki means the equilibrium dissociation constant of an inhibitor or competing ligand from its target. A lower Ki goes with higher affinity.

This test deals with Adenosine receptor A2a (Homo sapiens, UniProt P29274). In words: Displacement of [3H]NECA from human adenosine A2A receptor expressed in CHO cells. It is filed as cell-based. An outline of the steps: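 CHO cells stably expressing human receptor; membranes from a two-step spin (1000 g, then 100,000 g), resuspended in binding buffer, stored -80 °C. Competition with [3H]NECA at 30 nM (A2A) or 10 nM (A3); nonspecific binding defined with […]. Ki derived from competition experiments.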
For orientation: Loss of bound radioactivity is the signal in a displacement assay; it reports binding, not function.

`Cn1cnc2c(N)ncnc21` yielded a Ki of 6.9 µM.

Source of the values: ChEMBL document CHEMBL1153377, “8-Bromo-9-alkyl adenine derivatives as tools for developing new adenosine A2A and A2B receptors ligands” (Bioorg Med Chem, 2009).
